1 molecule from patent EP0655439A2, “5,6-Bicyclic glycoprotein IIb IIIa antagonists useful in inhibition of platelet aggregation” (ELI LILLY AND COMPANY, priority 1993, dated 1995) can be followed below.

By UniProt entry, the sequences of proteins in these tests, tags left out. Residues count along the entry.
UniProt P05106, 27-788 limits assumed: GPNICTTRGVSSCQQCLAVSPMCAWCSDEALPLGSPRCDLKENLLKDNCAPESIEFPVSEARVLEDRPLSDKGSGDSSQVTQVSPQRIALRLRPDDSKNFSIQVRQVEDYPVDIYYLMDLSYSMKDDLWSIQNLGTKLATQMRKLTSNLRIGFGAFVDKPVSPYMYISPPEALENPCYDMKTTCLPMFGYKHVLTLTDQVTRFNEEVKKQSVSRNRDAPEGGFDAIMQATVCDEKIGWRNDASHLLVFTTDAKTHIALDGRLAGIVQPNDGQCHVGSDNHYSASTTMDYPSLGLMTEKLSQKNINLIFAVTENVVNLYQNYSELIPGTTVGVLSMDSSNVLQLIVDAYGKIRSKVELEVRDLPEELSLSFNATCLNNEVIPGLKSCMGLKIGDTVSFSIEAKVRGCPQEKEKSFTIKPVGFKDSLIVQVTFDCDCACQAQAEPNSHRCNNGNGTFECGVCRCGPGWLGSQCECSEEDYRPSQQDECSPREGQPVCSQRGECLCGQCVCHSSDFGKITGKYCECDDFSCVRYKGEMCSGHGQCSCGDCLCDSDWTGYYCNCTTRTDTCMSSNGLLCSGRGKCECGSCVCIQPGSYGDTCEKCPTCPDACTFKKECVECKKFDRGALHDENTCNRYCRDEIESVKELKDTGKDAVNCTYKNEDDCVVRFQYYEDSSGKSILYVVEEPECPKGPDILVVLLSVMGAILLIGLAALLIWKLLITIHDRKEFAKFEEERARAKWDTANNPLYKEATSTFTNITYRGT
UniProt P08514, 32-887 limits assumed: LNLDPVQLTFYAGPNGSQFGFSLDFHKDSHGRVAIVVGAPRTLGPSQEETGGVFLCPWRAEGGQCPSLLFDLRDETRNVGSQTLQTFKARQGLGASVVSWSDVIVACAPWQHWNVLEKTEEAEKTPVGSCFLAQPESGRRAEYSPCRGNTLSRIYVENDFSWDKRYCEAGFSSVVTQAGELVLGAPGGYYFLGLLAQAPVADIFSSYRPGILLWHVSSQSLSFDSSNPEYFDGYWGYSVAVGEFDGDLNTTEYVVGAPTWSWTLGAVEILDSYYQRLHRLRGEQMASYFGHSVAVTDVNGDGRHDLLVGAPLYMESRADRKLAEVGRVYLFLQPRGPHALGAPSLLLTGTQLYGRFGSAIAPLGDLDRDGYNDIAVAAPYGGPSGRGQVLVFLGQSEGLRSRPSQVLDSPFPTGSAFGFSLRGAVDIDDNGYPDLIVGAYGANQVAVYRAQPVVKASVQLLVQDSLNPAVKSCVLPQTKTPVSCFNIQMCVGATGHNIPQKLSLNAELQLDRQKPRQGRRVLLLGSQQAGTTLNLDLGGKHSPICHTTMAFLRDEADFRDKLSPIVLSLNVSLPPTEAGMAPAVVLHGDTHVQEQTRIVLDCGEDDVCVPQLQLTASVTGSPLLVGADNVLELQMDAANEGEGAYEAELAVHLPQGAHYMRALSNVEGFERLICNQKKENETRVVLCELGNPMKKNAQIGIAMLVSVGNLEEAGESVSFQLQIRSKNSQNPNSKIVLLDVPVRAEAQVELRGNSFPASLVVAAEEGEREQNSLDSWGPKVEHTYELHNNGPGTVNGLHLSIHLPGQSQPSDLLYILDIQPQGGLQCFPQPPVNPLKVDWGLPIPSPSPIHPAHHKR
UniProt P08514, 891-1039 partner limits assumed: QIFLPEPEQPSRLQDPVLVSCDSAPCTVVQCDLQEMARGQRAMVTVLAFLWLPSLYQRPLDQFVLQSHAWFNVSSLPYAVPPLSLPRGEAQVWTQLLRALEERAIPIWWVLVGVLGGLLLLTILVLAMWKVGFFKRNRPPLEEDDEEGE

Bounds are passed on as bounds.

Experiment [1] deals with human platelet-rich plasma. Description: Platelet aggregation assay (PRP), Aggregation-Human/PRP/ADP. It counts as cell-based. The note with it: read-out: PRP IC50, 1 minute at 37°C before aggregating agent, most often ADP 5 µM, tested form: TFA. As to the method: In addition to the ELISA GPllb-Illa assay previously described the Aggregation-Human/PRP/ADP Assay is useful for evaluating therapeutic compounds.
Platelet-rich plasma was prepared from healthy human volunteers for use in determining inhibition of platelet aggregation by the compounds. Blood was collected via a 21 gauge butterfly cannula, using a two-syringe technique into 1/10 volume of 10% trisodium citrate.
Platelet-rich plasma was prepared at room temperature by centrifugation of the citrated whole blood at 100 x g for 15 minutes. The platelet rich plasma contained approximately 200-400,000 platelets/µl.
Platelet-poor plasma was prepared by centrifugation of citrated whole blood at 12,000 x g for 2 minutes.
Platelet aggregation was assayed in a 4-channel platelet aggregation profiler (PAP-4, Biodata, Hatboro, PA) according to the manufacturers directions. Inhibition of platelet aggregation was studied by adding varying amounts of test compounds to stirred human platelet-rich plasma. Specifically, the human platelet-rich plasma was incubated with test compounds for 1 minute at 37°C prior to the addition of a variety of aggregating agents most often ADP 5 µM, but also 1 µg/ml collagen, 1 µM U46619 or 1 µM platelet activating factor.

Another experiment has as its target GPIIb-IIIa (Homo sapiens, UniProt P05106+P08514). Description: GPIIb-IIIa ELISA assay (inhibition of fibrinogen binding to immobilized receptor). The note with it: read-out: ELISA IC50; purified platelet GPIIb-IIIa coated on plates; biotinylated fibrinogen 10 nM; 3 hours at 25 °C; tested form: TFA.

As to `CCCC(Cc1ccc(CNC(=O)c2cc3cc(C(=N)N)ccc3[nH]2)cc1)C(=O)O` (centres unmarked), the 50% inhibitory concentration (IC50) in experiment [1] was more than 100 µM; on GPIIb-IIIa it was 68 µM.
